Measurements published in patent publication US12227521B2, “CGRP antagonist compounds” (Nxera Pharma UK Limited, priority 2019, dated 2025).

Sequences of proteins named here, by UniProt entry; tags and fusion partners are left off. Residues count along the entry.
UniProt O60894, 27-148 limits assumed: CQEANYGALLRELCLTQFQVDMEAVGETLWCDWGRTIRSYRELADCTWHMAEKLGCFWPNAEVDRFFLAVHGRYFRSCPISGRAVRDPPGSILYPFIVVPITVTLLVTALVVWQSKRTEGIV
UniProt Q16602, 23-461 limits assumed: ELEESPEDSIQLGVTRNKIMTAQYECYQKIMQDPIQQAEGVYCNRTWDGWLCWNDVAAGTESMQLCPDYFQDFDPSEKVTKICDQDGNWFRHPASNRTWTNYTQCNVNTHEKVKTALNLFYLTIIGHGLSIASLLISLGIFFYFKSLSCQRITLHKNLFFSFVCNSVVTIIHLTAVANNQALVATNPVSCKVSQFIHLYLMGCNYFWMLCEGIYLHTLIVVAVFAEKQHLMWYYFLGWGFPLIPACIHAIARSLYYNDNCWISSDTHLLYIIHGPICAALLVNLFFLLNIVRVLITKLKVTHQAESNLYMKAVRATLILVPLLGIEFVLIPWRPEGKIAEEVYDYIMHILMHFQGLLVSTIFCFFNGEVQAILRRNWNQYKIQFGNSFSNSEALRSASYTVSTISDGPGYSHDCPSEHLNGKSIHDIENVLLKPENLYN

Target: human CGRP receptor (Homo sapiens, UniProt O60894+Q16602)
Experiment: cAMP functional assay (HTRF cAMP dynamic-2) in SK-N-MC cells
Details: SK-N-MC cells endogenously expressing human CGRP receptor; challenge with EC80 human CGRP (0.3 nM); functional pKb converted from pIC50 by modified Cheng-Prussoff equation
Description: cAMP production following receptor activation was determined using the Homogeneous Time-Resolved Fluorescence (HTRF) cAMP dynamic-2 assay (Cisbio, France). The human neuroblastoma cell line SK-N-MC endogenously expressing the human CGRP receptor was seeded at a density of 12,500 cells/well in solid walled 96 well half area plates (Costar, Catalog Number 3688, Corning Life Sciences, Germany). After 16 h incubation at 37° C. media was removed and cells were incubated at 37° C. for 30 min in serum free media containing 500 μM IBMX (Tocris, Abingdon, UK, Catalog Number 2845) and increasing concentrations of test antagonist. Following this cells were challenged with an EC80 concentration of human CGRP (0.3 nM) for a further 30 m at 37°) and then cAMP production was determined as manufacturer's instructions before plates were read on a PheraStar fluorescence plate reader (BMG LabTech, Germany). IC50 values were derived from the inhibition curve. The pIC50 values (where pIC50=−log10 IC50) were converted to a functional pKb value using a modified Cheng-Prussoff equation where Kd=agonist EC50 and L hot=agonist challenge concentration. The pKb values of certain compounds of the invention are detailed in Table 5.

Row | Structure (SMILES) | CGRP pKb
1 | CC1C(c2c(F)ccc(F)c2F)CC2NC(=O)c3cnc4c(c3)C[C@@]3(C4)C(=O)Nc4ncc(cc43)/C=C/COCCCC(F)(F)CN1C2=O (single isomer, unassigned) [1-8 Isomer 2] | 9.2
2 | O=C1NC2CC(c3ccccc3)CN(CCOCCOCCOC/C=C/c3cnc4c(c3)[C@@]3(Cc5cc1cnc5C3)C(=O)N4)C2=O (single isomer, unassigned) [6-2 Isomer 2] | 8.9
3 | CC1C(c2ccccc2)CC2NC(=O)c3ccc4c(c3)C[C@@]3(C4)C(=O)Nc4ncc(cc43)/C=C/COCCOCCN1C2=O (single isomer, unassigned) [9-1 Mixture (Isomer 2)] | 9.9
4 | CC1C(c2ccccc2)CC2NC(=O)c3cc4c(cn3)C[C@]3(C4)C(=O)Nc4ncc(cc43)/C=C/COCCOCCN1C2=O (single isomer, unassigned) | 9.4
5 | CC1C(c2c(F)ccc(F)c2F)CC2NC(=O)c3cnc4c(c3)C[C@@]3(C4)C(=O)Nc4ncc(cc43)/C=C/CCOCCCCN1C2=O (single isomer, unassigned) [1-5 Isomer 1] | 11.6
6 | C[C@@H]1[C@H](c2cc(F)cc(F)c2F)C[C@@H]2NC(=O)c3cnc4c(c3)C[C@@]3(C4)C(=O)Nc4ncc(cc43)/C=C/COCCCCCN1C2=O (single isomer, unassigned) | 11.4
7 | CC1C(c2c(F)ccc(F)c2F)CC2NC(=O)c3cnc4c(c3)C[C@@]3(C4)C(=O)Nc4ncc(cc43)/C=C/COCCOCCCN1C2=O (single isomer, unassigned) [1-3 Isomer 1] | 11.1
8 | CC1C(c2ccccc2)CC2NC(=O)c3cnc4c(c3)C[C@@]3(C4)C(=O)Nc4ncc(cc43)/C=C/COCCN(C)CCN1C2=O (single isomer, unassigned) | 9.8
